According to patent US11970576B2, “Beta-peptido sugar-copolymer” (NANYANG TECHNOLOGICAL UNIVERSITY, priority 2017, dated 2024):
≈ marks a conversion by molar mass, not a printed value.

Key:
Assay type in all cases: cell-based
[1] = tested on: E. coli (ATCC 8739)
Method: (§1) Antimicrobial activity of block-like copolymers PDGu(x)-b-PBLK(y) against a panel of bacteria including both Gram-positive (S. aureus and B. subtilis) and Gram-negative (E. coli) in terms of minimal inhibition concentration (MIC) were tested. […] The activity was decreased with the increase of sugar ratio. This is reasonable when considering the killing domains became less.

[2] = tested on: S. aureus (ATCC 29213)
Method: as §1

[3] = tested on: methicillin-resistant S. aureus (BAA-40)
Method: as §1

CC[C@H](C)[C@H](NC(=O)CN)C(=O)NCC(=O)N[C@@H](C)C(=O)N[C@H](C(=O)N[C@@H](CC(C)C)C(=O)N[C@@H](CCCCN)C(=O)N[C@H](C(=O)N[C@@H](CC(C)C)C(=O)N[C@H](C(=O)N[C@H](C(=O)NCC(=O)N[C@@H](CC(C)C)C(=O)N1CCC[C@H]1C(=O)N[C@@H](C)C(=O)N[C@@H](CC(C)C)C(=O)N[C@H](C(=O)N[C@@H](CO)C(=O)N[C@@H](Cc1c[nH]c2ccccc12)C(=O)N[C@H](C(=O)N[C@@H](CCCCN)C(=O)N[C@@H](CCCNC(=N)N)C(=O)N[C@@H](CCCCN)C(=O)N[C@@H](CCCNC(=N)N)C(=O)N[C@@H](CCC(N)=O)C(=O)N[C@@H](CCC(N)=O)C(N)=O)[C@@H](C)CC)[C@@H](C)CC)[C@@H](C)O)[C@@H](C)O)C(C)C)C(C)C [Melittin]
MIC E. coli [1]: 32 µg/mL (≈ 11.2 µM) | MIC SA 29213 [2]: 8 µg/mL (≈ 2.81 µM) | MIC MRSA [3]: 8 µg/mL (≈ 2.81 µM)
